This assay has as its system primary AML cells. Kind of assay: Sample drug screening: viability of primary AML cells (PrestoBlue) after 24 h drug exposure in nine culture conditions. The note with it: Homo sapiens, read-out: IC50 daunorubicin.

The structures appear in SMILES notation. pIC50: −log10 of the molar value.

For `COc1cccc2c1C(=O)c1c(O)c3c(c(O)c1C2=O)C[C@@](O)(C(C)=O)C[C@@H]3O[C@H]1C[C@H](N)[C@H](O)[C@H](C)O1` [daunorubicin], the pIC50 – broadly, the negative decadic logarithm of the IC50, by convention in mol/L – was 5.69.

These data come from patent US20240384236A1, “3D RECONSTITUTED BONE MARROW NICHE AND USES THEREOF” (The University of Hong Kong, priority 2023, published 2024).
